{"sequences": {"note": "By UniProt entry, the sequences of proteins in these tests, tags left out.", "UniProt P23219, whole entry": "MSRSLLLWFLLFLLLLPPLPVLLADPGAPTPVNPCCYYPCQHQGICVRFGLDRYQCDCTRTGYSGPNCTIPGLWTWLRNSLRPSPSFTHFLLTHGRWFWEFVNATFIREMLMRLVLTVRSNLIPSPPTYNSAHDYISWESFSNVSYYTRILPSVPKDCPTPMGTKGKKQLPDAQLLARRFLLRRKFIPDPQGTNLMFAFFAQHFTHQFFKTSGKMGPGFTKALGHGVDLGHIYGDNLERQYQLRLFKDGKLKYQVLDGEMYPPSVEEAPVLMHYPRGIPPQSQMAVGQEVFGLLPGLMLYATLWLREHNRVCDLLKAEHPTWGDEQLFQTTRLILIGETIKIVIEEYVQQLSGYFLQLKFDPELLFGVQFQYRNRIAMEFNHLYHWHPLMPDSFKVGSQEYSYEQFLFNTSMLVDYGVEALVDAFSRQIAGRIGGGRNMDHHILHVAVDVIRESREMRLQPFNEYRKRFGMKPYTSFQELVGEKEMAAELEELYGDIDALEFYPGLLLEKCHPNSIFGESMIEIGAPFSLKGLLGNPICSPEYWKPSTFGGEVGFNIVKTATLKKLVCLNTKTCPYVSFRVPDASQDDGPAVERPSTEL"}, "source": "ChEMBL document CHEMBL1144769", "about": "(J Med Chem, 2008)", "target": "Prostaglandin G/H synthase 1 (Homo sapiens, UniProt P23219)", "assay": "Inhibition of COX1"}
{"smiles": "COc1ccc(-c2noc(CC(=O)O)c2-c2ccc(OC)cc2)cc1", "note": "[MOFEZOLAC]", "values": [{"measurement": "IC50", "value": 1.4, "unit": "nM"}]}
